# Tests used:
# [1] = Maximum tolerated dose in mice; details: mouse
# [2] = Mouse brain penetration; format: in vivo; details: female, NMRI, brain and blood, intravenous, 2 mg free base/kg, read-out: B:B (brain:blood ratio in mouse)
# [3] = tested on: T. b. brucei S427; assay: Stage 1 HAT mouse efficacy model, T. b. brucei S427; format: in vivo; details: T. b. brucei S427, 50 mg/kg b.i.d. po for 4 days
smiles,measurement,setting,value
Cc1c(NS(=O)(=O)c2c(Cl)cc(-c3ccnc(N4CCNCC4)c3)cc2Cl)c(CC(C)C)nn1C [compound 6],stage 1 HAT therapeutic window,[1],2–3 fold
Cc1nn(C)c(C)c1NS(=O)(=O)c1ccc(CCCC2CCN(C)CC2)cc1 [compound 17],Kp,[2],≤ 0.1
Cc1nn(C)c(C)c1N(C(F)F)S(=O)(=O)c1c(Cl)cc(CCCCC2CCN(C)CC2)cc1Cl [compound 46],Activity in stage 1 mouse model,[3],fully curative
